Here are results for two compounds from US20250144069A1, “BILOBALIDE DERIVATIVE COMPOUNDS FOR TREATING NEUROLOGICAL DISEASES AND CANCERS” (The Chinese University of Hong Kong, priority 2023, published 2025).

The assay deals with BV-2 murine microglial cell line. Put plainly: RSL3-induced ferroptosis model, cell viability (CCK-8). The note with it: BV-2, co-treated with multiple doses of RSL3, 50 μM compound, 24 h.

`CC(C)(C)[C@]1(O)C[C@@H]2OC(=O)C[C@@]23C(=O)O[C@@H]2N(c4ccc(N)cc4)C(=O)[C@H](OC(=O)c4ccccc4)[C@]213` [XBB-037, 4-(3aS,5aS,8R,9R,10aS)-8-(benzoyloxy)-9-(tert-butyl)-9-hydroxy-2,4,7-trioxohexahydro-4H,9H-furo[3″,2″:2′,3′]cyclopenta[1′,2′:3,4]furo[2,3-b]pyrrol-6(5aH)-yl)benzenaminium chloride]: the “shift of RSL3 dose-dependent viability curve” value is given as “diminished RSL3 lethality”.

For `CC(C)(C)[C@]1(O)C[C@@H]2OC(=O)C[C@@]23C(=O)O[C@@H]2OC(=O)[C@H](O)[C@]213` [bilobalide], the “shift of RSL3 dose-dependent viability curve” value is “relatively marginal”.
